# Assays:
# [1] = test system: type II collagen production; assay: Type II collagen production level (ELISA of cell supernatant) in rhIL-1α osteoarthritis in vitro model; assay type: cell-based; settings: primary rat chondrocytes, rhIL-1α 5 ng/mL for 24 h, test solution given 1 h before, label = (w/v) % of D dextran 1, P poloxamer 188, T dextran 5, mixtures 1:1 v:v, HN 8.33 mg/mL, IM 5 μM
# Protocol: (§1) In order to identify protein production levels of the type II collagen and aggrecan among indicator substances for osteoarthritis evaluation, each test substance was administered to chondrocytes at 1 hour before the treatment with rhIL-1α, and then the cell was cultured for 24 hours. Type II collagen and aggrecan are cartilage substrate compositions. Thus, when the production levels thereof are increased, the cartilage substrate protection effect may be excellent.
# (§2) In this connection, cell supernatant (culture solution) was collected and centrifuged at 13,000 rpm for 10 minutes, and thus only the supernatant was used for analysis. The centrifuged cell supernatant was analyzed using Aggrecan ELISA Kit (Rat Aggrecan ELISA Kit, Mybiosource, MBS261073) and with reference to the manuals of the type II Collagen (Type II Collagen detection Kit, Multi-Species, Chondrex, 6018). For accurate analysis, absorbance was measured at 450 nm and 490 nm using an ELISA reader (EPOCH 2 microplate reader, BioTek, Instruments, VT, USA) of the entire wavelength range. The contents (ng/mL) of the type II collagen and aggrecan were quantified according to the calibration curve.
# aggrecan production = assay: Aggrecan production level (ELISA of cell supernatant) in rhIL-1α osteoarthritis in vitro model; assay type: cell-based; settings: primary rat chondrocytes, rhIL-1α 5 ng/mL for 24 h, test solution given 1 h before, label = (w/v) % of D dextran 1, P poloxamer 188, T dextran 5, mixtures 1:1 v:v, HN 8.33 mg/mL, IM 5 μM
# Protocol: as §1, §2
smiles,measurement,setting,value
"COc1ccc2c(c1)c(CC(=O)O)c(C)n2C(=O)c1ccc(Cl)cc1 [IM, indomethacin]",Type II Collagen Mean,[1],127.3 ng/mL
same,Aggrecan Mean,aggrecan production,1.573 ng/mL

# — patent US11801260B2, “Compositions for treating joint or connective tissue disease comprising dextran or poloxamer” (MEDICINE PARK CO., LTD, priority 2017, dated 2023)
